This assay deals with Sodium-dependent dopamine transporter (Rattus norvegicus, UniProt P23977).

Sequences of proteins named here, by UniProt entry; tags and fusion partners are left off.
UniProt P23977, whole entry: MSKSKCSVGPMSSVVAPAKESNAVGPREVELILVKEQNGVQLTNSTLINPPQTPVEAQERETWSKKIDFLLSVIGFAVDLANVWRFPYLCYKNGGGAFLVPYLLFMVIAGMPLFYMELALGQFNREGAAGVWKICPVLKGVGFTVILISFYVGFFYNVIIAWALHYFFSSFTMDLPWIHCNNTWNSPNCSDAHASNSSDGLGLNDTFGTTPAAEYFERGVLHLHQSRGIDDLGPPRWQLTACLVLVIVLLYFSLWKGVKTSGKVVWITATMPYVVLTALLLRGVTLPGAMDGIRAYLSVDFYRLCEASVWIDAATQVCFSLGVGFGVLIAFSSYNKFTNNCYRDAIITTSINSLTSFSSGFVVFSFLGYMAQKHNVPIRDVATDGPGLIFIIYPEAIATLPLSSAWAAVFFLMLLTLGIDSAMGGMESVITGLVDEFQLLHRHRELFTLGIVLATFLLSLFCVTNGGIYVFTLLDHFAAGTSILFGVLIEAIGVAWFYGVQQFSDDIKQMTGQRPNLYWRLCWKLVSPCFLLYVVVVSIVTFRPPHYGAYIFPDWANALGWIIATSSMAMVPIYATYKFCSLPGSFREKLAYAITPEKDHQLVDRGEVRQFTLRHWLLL

Regarding `CNC1CC(c2ccc(Cl)c(Cl)c2)c2ccccc21` (stereo unspecified), affinity was put at a Ki of 1.9 nM.

What is called Ki is the equilibrium dissociation constant of an inhibitor or competing ligand from its target. A lower Ki goes with a stronger hold on the target.

The record behind these values is BindingDB's records for doi:10.1002/1098-2396(20010101)39:1 (Nih, 2001).
